## Apparent affinities of Ab-14 variants for a coronavirus HR2 peptide

Source: Engelhart et al. 2022 (doi:10.1038/s41597-022-01779-4), MIT Lincoln Laboratory and A-Alpha Bio; data file from the FLAb repository.

Binding partner: SARS-CoV-2 spike HR2 peptide, sequence PDVDLGDISGINAS.

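AAYL50 was designed without a model: most single CDR substitutions and a random sample of double and triple ones. AlphaSeq pools MATa yeast showing the antibodies with MATalpha yeast showing the peptide. Pairs that bind mate more often; barcode pairs of the diploids are counted by sequencing. A regression on co-assayed BCL2-family reference pairs converts the normalised counts of each replicate to an apparent Kd. There are three technical replicates.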

Parent: Ab-14, a human scFv built as VH, three GGGGS repeats, VL. Only the CDRs of the light chain vary.
VH: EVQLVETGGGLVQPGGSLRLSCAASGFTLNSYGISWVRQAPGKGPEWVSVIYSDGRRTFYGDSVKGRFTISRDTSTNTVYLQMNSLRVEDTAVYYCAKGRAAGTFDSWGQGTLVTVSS
VL: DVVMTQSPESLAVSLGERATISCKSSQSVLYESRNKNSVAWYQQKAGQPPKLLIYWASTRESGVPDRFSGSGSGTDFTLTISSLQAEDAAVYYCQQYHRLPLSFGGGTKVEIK

Positions count from residue 1 of the parent VL; K24H puts H in place of K.
This list gathers variants with a substitution at K24 (VL, numbered from residue 1).
The Kd shown is the geometric mean over detected replicates; a lower Kd is a better binder.
"no signal" means that the variant was in the library but no mating with the target was seen in any replicate; the authors take this as a sign of poor binding, and no number exists.

With K24H+S58V+E61C the result was 43 nM (3 of 3 replicates; controls 1 of 9). With K24M+A40F+S62E the result was 44 µM (1 of 3 replicates; controls 3 of 9). With K24G+S33R+S38D the result was no signal (0 of 3 replicates; controls 0 of 9). For K24W+Q96G+H98K, the assay gave 30 µM (3 of 3 replicates; controls 2 of 9). Variant K24H+R34M+H98E showed 11 nM (3 of 3 replicates; controls 2 of 9). With K24G+S33W+P101T the result was 12 µM (2 of 3 replicates; controls 1 of 9).

Variant K24Q+R34V+A40C showed 290 nM (3 of 3 replicates; controls 1 of 9). With K24C+A40G the result was no signal (0 of 3 replicates; controls 0 of 9). Variant K24M+Q27D+E61M showed 110 nM (3 of 3 replicates; controls 1 of 9). With K24G+L100W+P101C the result was no signal (0 of 3 replicates; controls 0 of 9). Variant K24S+K36A+S38E gave 520 nM (3 of 3 replicates; controls 2 of 9). Variant K24F+S26E+E32L gave 1.0 µM (2 of 3 replicates; controls 0 of 9).

With K24H+V29Y+V39Q the result was no signal (0 of 3 replicates; controls 0 of 9). With K24C+Y31R+S103L the result was 2.0 µM (3 of 3 replicates; controls 0 of 9). For K24N+E32Q+T59F, the assay gave 250 nM (3 of 3 replicates; controls 3 of 9). Variant K24C+H98P+S103I showed 140 nM (3 of 3 replicates; controls 4 of 9). For K24I+S26K+S28A, the assay gave 100 nM (3 of 3 replicates; controls 0 of 9). Variant K24W+S26A+R99Y gave 1.5 µM (3 of 3 replicates; controls 1 of 9).

Variant K24V+W56G+S103A gave 1.2 nM (3 of 3 replicates; controls 4 of 9). With K24C+Q27F+A40C the result was 180 µM (2 of 3 replicates; controls 4 of 9). With K24T+Q27R+S103M the result was 41 nM (3 of 3 replicates; controls 0 of 9). With K24F+S38Q+A40L the result was no signal (0 of 3 replicates; controls 2 of 9). Variant K24C+Y31I+R34L gave 39 nM (3 of 3 replicates; controls 4 of 9). Variant K24E+Y31V showed 17 nM (3 of 3 replicates; controls 1 of 9).

For K24V+N37D+L102I, the assay gave 2.8 µM (3 of 3 replicates; controls 1 of 9). With K24D+R34N the result was 64 nM (3 of 3 replicates; controls 0 of 9). For K24Q+V39N+A57Y, the assay gave no signal (0 of 3 replicates; controls 2 of 9). Variant K24R+S25I+E32D showed 700 pM (3 of 3 replicates; controls 3 of 9). Variant K24Y+S33V+S58R showed 81 µM (1 of 3 replicates; controls 3 of 9). Variant K24E+S62M+Q95I showed 21 µM (3 of 3 replicates; controls 3 of 9).

With K24T+R34Y+N37V the result was 4.6 µM (3 of 3 replicates; controls 2 of 9). Variant K24W+N37Q+H98V gave 320 nM (3 of 3 replicates; controls 3 of 9). Variant K24P+S33E+V39M showed no signal (0 of 3 replicates; controls 0 of 9). Variant K24A+R34S+L102T showed 31 nM (3 of 3 replicates; controls 0 of 9). With K24V+S33M+S103I the result was 330 nM (2 of 3 replicates; controls 1 of 9). With K24Y+R60P+Y97A the result was 4.0 µM (1 of 3 replicates; controls 3 of 9).

For K24F+R34A+Q96T, the assay gave 110 nM (3 of 3 replicates; controls 4 of 9). For K24F+S25G+P101I, the assay gave no signal (0 of 3 replicates; controls 0 of 9). Variant K24C+S26R+S103C showed 140 µM (2 of 3 replicates; controls 4 of 9).

The 4 strongest on average among those seen in every replicate, once more:

changes,Kd (apparent),seen in,signal with controls
K24R+S25I+E32D,700 pM,3 of 3,3 of 9
K24V+W56G+S103A,1.2 nM,3 of 3,4 of 9
K24H+R34M+H98E,11 nM,3 of 3,2 of 9
K24E+Y31V,17 nM,3 of 3,1 of 9

Parent in this assay: reference entry 4.4 nM, copy in this library 48 nM.
As a blank, each scFv also met three strains without target: over library AAYL50, 18% of these pairings were detected, typically at 15 µM and seldom below 970 nM. Also given: how often the same scFv was detected with the empty control strains.